Measurements published in patent US10221167B2, “Hydroxyalkylamine- and hydroxycycloalkylamine-substituted diamine-arylsulfonamide compounds with selective activity in voltage-gated sodium channels” (Merck Sharp & Dohme Corp., priority 2015, dated 2019).

Sequences of proteins named here, by UniProt entry; tags and fusion partners are left off.
UniProt Q15858, whole entry: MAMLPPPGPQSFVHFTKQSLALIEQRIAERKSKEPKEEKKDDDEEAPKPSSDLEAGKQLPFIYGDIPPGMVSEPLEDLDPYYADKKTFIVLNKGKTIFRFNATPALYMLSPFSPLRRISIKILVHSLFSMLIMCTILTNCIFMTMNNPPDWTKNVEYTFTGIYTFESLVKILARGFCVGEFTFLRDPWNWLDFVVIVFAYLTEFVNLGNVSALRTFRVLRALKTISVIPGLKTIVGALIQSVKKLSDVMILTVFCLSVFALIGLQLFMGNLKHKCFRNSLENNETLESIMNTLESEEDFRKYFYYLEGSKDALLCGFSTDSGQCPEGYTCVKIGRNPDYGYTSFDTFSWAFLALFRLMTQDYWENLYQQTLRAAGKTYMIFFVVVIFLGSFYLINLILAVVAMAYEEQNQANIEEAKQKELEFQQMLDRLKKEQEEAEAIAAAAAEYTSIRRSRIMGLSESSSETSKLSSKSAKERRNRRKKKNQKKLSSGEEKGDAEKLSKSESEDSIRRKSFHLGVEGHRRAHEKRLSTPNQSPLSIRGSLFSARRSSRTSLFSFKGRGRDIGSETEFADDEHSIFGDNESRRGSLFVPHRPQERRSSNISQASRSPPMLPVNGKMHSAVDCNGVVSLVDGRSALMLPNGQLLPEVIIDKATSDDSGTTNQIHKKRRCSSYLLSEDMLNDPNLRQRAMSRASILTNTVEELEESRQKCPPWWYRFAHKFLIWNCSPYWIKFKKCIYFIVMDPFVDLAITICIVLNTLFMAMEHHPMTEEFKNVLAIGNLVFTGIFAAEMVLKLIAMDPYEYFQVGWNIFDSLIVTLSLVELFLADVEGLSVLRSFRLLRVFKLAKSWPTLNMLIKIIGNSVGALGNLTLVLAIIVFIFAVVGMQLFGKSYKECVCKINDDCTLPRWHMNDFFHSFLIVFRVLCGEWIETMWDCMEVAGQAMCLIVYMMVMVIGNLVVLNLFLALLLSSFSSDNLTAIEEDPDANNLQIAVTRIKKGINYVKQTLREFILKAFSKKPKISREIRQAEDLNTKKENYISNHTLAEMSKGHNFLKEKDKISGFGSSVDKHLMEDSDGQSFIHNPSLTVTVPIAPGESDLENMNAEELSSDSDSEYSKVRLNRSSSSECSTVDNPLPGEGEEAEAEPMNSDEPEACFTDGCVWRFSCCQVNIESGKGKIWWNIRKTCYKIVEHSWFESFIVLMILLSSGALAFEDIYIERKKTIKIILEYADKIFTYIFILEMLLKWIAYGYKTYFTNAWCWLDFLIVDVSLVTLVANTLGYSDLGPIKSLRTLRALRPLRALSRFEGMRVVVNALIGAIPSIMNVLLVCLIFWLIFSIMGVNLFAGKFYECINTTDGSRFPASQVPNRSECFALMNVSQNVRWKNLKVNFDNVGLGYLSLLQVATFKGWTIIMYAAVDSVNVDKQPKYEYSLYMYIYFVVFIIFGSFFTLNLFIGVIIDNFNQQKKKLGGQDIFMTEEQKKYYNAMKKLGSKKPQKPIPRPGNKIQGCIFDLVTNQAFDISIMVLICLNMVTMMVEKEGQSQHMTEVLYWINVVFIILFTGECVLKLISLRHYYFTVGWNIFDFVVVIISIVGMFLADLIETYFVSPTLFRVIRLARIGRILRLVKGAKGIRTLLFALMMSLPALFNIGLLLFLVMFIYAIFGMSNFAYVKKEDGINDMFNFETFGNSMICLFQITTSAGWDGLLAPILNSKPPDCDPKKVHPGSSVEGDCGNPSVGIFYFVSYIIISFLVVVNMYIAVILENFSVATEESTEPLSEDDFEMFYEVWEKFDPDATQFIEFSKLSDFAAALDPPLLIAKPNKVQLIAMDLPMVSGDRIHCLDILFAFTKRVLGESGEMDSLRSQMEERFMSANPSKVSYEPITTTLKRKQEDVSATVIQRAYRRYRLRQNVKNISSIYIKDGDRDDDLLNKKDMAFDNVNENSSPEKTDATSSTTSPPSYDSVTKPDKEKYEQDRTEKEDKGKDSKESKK
UniProt Q14524, whole entry: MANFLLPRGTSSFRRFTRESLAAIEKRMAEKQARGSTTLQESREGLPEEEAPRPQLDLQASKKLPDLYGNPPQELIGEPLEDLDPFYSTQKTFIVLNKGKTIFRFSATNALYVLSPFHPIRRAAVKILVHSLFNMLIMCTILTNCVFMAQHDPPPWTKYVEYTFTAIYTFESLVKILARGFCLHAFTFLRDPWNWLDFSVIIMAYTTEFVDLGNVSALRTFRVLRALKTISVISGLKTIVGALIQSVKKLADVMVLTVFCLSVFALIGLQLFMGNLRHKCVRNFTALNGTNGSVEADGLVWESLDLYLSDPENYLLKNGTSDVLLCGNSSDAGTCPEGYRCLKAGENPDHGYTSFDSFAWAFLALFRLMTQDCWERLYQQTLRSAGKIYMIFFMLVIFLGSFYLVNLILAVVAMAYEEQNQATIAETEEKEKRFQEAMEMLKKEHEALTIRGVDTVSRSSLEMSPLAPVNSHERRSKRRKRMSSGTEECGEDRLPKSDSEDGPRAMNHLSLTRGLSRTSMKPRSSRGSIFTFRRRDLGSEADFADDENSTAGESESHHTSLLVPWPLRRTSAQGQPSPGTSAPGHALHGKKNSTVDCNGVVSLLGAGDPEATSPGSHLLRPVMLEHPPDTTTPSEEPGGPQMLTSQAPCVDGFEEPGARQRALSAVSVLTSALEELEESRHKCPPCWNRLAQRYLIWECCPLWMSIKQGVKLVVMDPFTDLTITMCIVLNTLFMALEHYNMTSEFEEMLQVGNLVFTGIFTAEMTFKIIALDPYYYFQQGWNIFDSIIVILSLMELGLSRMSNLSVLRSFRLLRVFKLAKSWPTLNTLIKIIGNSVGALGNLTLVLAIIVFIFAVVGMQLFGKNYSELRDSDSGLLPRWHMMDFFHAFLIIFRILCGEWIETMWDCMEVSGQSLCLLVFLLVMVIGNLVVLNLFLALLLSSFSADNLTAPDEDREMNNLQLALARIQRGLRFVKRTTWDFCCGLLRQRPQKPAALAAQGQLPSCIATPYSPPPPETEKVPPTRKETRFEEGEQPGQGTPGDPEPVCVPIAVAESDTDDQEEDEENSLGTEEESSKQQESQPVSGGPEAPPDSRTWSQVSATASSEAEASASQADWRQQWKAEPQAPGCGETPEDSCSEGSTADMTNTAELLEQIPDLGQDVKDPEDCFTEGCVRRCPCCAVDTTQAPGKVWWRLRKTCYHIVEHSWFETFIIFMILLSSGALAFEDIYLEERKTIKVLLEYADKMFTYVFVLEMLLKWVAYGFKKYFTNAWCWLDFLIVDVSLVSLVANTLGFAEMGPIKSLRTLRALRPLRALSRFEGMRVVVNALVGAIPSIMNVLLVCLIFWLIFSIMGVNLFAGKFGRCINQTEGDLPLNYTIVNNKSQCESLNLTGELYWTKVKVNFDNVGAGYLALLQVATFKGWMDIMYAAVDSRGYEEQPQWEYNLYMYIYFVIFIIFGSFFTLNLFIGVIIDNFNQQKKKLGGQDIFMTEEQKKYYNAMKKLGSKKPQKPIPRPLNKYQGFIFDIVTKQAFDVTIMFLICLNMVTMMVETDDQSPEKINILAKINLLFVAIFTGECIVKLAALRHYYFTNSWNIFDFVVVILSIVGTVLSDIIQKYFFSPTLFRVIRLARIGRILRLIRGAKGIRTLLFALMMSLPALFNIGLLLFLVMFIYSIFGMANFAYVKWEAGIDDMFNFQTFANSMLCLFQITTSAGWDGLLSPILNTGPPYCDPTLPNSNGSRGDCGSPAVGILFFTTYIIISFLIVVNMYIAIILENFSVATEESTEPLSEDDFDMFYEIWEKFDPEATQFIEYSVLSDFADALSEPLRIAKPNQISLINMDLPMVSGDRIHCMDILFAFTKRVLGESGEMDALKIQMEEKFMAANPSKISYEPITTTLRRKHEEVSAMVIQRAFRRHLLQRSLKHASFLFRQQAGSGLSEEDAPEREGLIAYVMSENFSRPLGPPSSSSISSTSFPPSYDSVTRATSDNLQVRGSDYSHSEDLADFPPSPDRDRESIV

Assays:
[1] = target: human Nav1.7 channels stably expressed in HEK 293 cells (Homo sapiens, UniProt Q15858); assay: IonWorks Quattro automated patch-clamp, state-dependent inhibition of Nav1.7; conditions: read-out: potency for the Nav 1.7 sodium ion channel (as measured by IonWorks), inactivated state block, double-pulse protocol, holding -100 mV
Description: (§1) Compounds were tested on human Nav1.7 and Nav1.5 channels stably expressed in HEK 293 cells. Sodium current measurements on IonWorks Quattro: An automated patch-clamp assay on the IonWorks Quattro platform (Molecular Devices) was used to measure state-dependent inhibition of human Nav1.7 and 1.5 channels. Cells were sealed on a planar substrate using the Population Patch Plate (PPC) technology. Electrical access was obtained using both nystatin and amphotericin. A double-pulse protocol was used for the determination of IC50 values for inactivated state block. Nav1.7 and Nav1.5 expressing cells were voltage clamped at −100 mV and −110 mV, respectively. A depolarizing prepulse to −10 mV (Nav1.7) or −30 mV (Nav1.5) for 1000 ms followed by a 10 ms repolarization to −100 mV (Nav1.7) or −110 mV (Nav1.5) was given to generate fractional channel inactivation of ˜50%, followed by a 10 ms test pulse to −10 mV (Nav1.7) or −30 mV (Nav1.5) to measure peak current in control conditions and after compound addition. The following recording solutions were used (mM). External: 150 NaCl, 2 CaCl2, 5 KCl, 1 Mg Cl2, 10 HEPES, 12 Dextrose; internal: 120 CsF, 30 CsCl, 10 EGTA, 5 HEPES, 5 NaF, 2 MgCl2.
(§2) For all electrophysiology experiments, offline analysis was used to determine percent inhibition as a function of drug concentration. IC50 values were determined by fitting to the Hill equation. […]

[2] = target: human Nav1.5 channels stably expressed in HEK 293 cells (Homo sapiens, UniProt Q14524); assay: IonWorks Quattro automated patch-clamp, Nav1.5 (selectivity ratio versus Nav1.7); conditions: selectivity for Nav1.7 over Nav1.5, inactivated state block
Description: as §1, §2

## O=S(=O)(Nc1ncns1)c1cc(Br)c(NCCCCN2CCNCC(O)C2)cc1F (centres unmarked)
[1]
  IC50: 0.16 µM
[2]
  ratio of Nav1.7 potency:Nav 1.5 potency: ≥ 200
